This is an account of results in PubChem BioAssay AID488965 (Broad Institute, 2010).

This is a selection; strong and weak results do not stand in their true shares. Activity calls are given as the source filed them. Rule as the data show it: active = inhibition above about 30% (passing the limit was not always enough); inconclusive = no clear call, values can overlap the other calls.

This assay relates to PvdQ acylase [Pseudomonas aeruginosa LESB58]. The experiment in a line: P. aeruginosa PvdQ acylase inhibitors, primary screen, biochemical, fluorescence, plate reader and imaging, single point (AID 488965).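 Also: 0% = vehicle neutral wells and 100% = reference inhibitor wells.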 The settings on record: purified PvdQ acylase, at 10 µM, active compounds read high.
With `O=C(OC1CN2CCC1CC2)c1cccc(Cl)c1` (stereo not given), the inhibition (usually the relative decrease from the control value, in per cent) is inactive: -12.5%. Regarding `C(Cc1nn[nH]n1)Cc1nn[nH]n1`, the inhibition was inactive: 2.91%.

`Nc1ccc([As](=O)(O)c2ccc([N+](=O)[O-])cc2)cc1`: the inhibition was inactive: -8.61%. Take `O=[As](O)(c1ccccc1)c1ccc(O)cc1`: the inhibition is inactive: 9.8%. The value for `O=[N+]([O-])c1ccc(O)c(/C=N/Nc2ccc([N+](=O)[O-])cc2[N+](=O)[O-])c1` was inactive: -17.4%; that for `CC(=O)NC(SC(=S)N(C)C)C(Cl)(Cl)Cl` (stereo not given) was inactive: 4.88%; that for `O=[N+]([O-])c1ncn(CCn2cnc([N+](=O)[O-])n2)n1` was inactive: 2.36%. As to `C[C@H]1OP(=O)(Oc2ccccc2)[C@H](O)[C@H](O)[C@H]1N=[N+]=[N-]` (stereo not given in full), the inhibition is inactive: -3.94%. For `O=P(Nc1nc2ccccc2s1)(c1ccccc1)c1ccccc1`, the inhibition is inactive: -3.41%. The value for `O=P(Nc1ccccn1)(c1ccc(Br)cc1)c1ccc(Br)cc1` was inactive: -13.7%; that for `CN(C)C1(CNC(=O)c2ccc(Cl)c(S(N)(=O)=O)c2)CCCCC1` was inactive: -9.64%.

Regarding `COc1ccc(N)c([N+](=O)[O-])c1[N+](=O)[O-]`, the inhibition was inactive: 4.18%. The value for `c1nnnn1CCn1cnnn1` was inactive: -5.31%; that for `CC(C)C(=O)NC(Sc1ccccc1)C(Cl)(Cl)Cl` (stereo not given) was inactive: 2.31%; that for `O=P(Nc1nccs1)(c1ccccc1)c1ccccc1` was inactive: -11.7%. The value for `CC(=O)Nc1ccc(Oc2c([N+](=O)[O-])cc([N+](=O)[O-])cc2[N+](=O)[O-])cc1` was inactive: -0.893%. For `CC(=O)Nc1ccc([As](=O)(O)O)c(O)c1`, the inhibition was inactive: -7.37%. The value for `C[C@H]1OP(=O)(Oc2ccccc2)C[C@@H]2O[C@@H]21` (stereo not given in full) was inactive: -9.04%; that for `C[C@@H]1C=CCP(=O)(Oc2ccccc2)O1` (stereo not given in full) was inactive: -6.03%. The value for `Cc1ccccc1CN(C)C(=O)COC(=O)C(O)(c1ccccc1)c1ccccc1` was inactive: 8.83%. The value for `COC(=O)C1(C)COP(=O)(NCc2ccccc2)OC1` (stereo not given) was inactive: -4.86%; that for `CC(=O)c1ccc(N2CC2c2ccncc2)cc1` (stereo not given) was inactive: -11.9%. Regarding `N#C/C(=C\c1ccc(N(CCBr)CCBr)cc1)C(N)=O`, the inhibition was inactive: -2.64%. For `CC(C)(C)C(=O)NC(Sc1ccccc1)C(Cl)(Cl)Cl` (stereo not given), the inhibition is inactive: -12.6%. On to `CCc1cc(O)c([N+](=O)[O-])c(C)c1[N+](=O)[O-]`, for which the inhibition is inactive: -14.8%.

Regarding `CCOc1ccc(C2=NCC(CBr)S2)cc1` (stereo not given), the inhibition was inactive: 3.4%. To `O=P1(Nc2nc3ccc(Cl)cc3s2)COc2ccccc2O1` (stereo not given) belongs inactive: -14.1%. To `O=c1c2cc([N+](=O)[O-])ccc2[nH]c2c([N+](=O)[O-])cc([N+](=O)[O-])cc12` belongs inactive: -10.6%. The value for `CN(C)C(=O)Oc1noc2ccccc12` was inactive: -1.43%. For `CC(NC(=O)COC(=O)C(O)(c1ccccc1)c1ccccc1)c1ccccc1` (stereo not given), the inhibition was inactive: -11.1%. To `Cc1ccccc1OP(=O)(Nc1ccccn1)Oc1ccccc1C` belongs inactive: 6.49%; to `CCC(=O)N1C2C3N(C(=O)CC)C1C1N(C(=O)CC)C(C(N1C(=O)CC)N3C(=O)CC)N2C(=O)CC`, inactive: -11.2%; to `O=C(OC1CN2CCC1CC2)c1ccccc1` (stereo not given), inactive: -12.2%. To `CC(=O)NC(SC(=S)N(CC(C)C)CC(C)C)C(Cl)(Cl)Cl` (stereo not given) belongs inactive: -10.6%; to `Cc1ccc(OP(=O)(Nc2ccccn2)Oc2ccc(C)cc2)cc1`, inactive: -3.67%; to `COC(=O)c1cc2c(s1)N=C(c1ccccc1)N(C)P2(=O)N1CCOCC1` (stereo not given), inactive: -10.7%. To `O=P1(N(CCCl)CCCl)OCCC2CCCCN21` (stereo not given) belongs inactive: -19.8%; to `Cc1ccc(NP(=O)(Oc2cccc(C)c2)Oc2cccc(C)c2)nc1`, inactive: -8.39%. Turning to `c1ccc(-c2nn[nH]n2)c(-c2nn[nH]n2)c1`, the inhibition is inactive: 0.834%. The value for `CCNC(=S)/N=C(\N)N[N+](=O)[O-]` was inactive: -2.32%; that for `O=C(NC1CCS(=O)(=O)C1)NP(=S)(Oc1ccccc1)Oc1ccccc1` (stereo not given) was inactive: -3.08%.

Regarding `Nc1cccc2ccc([As](=O)(O)O)cc12`, the inhibition was inactive: -2.61%.

Take `CCN(N=Nc1nonc1N)c1nonc1N`: the inhibition is inactive: -1.32%. The value for `Cc1ccc(NP(=O)(Oc2ccccc2F)Oc2ccccc2F)nc1` was inactive: -10.5%; that for `CN(C(=O)Cc1ccc(Cl)c(Cl)c1)[C@H]1CCCC[C@@H]1N1CCCC1` was inactive: -7.52%; that for `Cc1cc(SC(NC(=O)c2ccc(F)cc2)C(Cl)(Cl)Cl)ncn1` (stereo not given) was inactive: 3.19%. The value for `CCOP(=O)(Nc1ccccc1)OCC` was inactive: -14.5%; that for `O=P(Nc1nc2ccc(Cl)cc2s1)(c1ccccc1)c1ccccc1` was inactive: -5.9%. To `CCCC1OP(N)(=O)OCC1CC` (stereo not given) belongs inactive: -7.9%; to `CC(=O)Nc1ccc([As](=O)(O)O)cc1`, inactive: -16.1%; to `O=C(O)c1ccccc1[As](=O)(O)O`, inactive: 1.8%. For `O=C(NC(Sc1ccncn1)C(Cl)(Cl)Cl)c1ccccc1` (stereo not given), the inhibition is inactive: 0.978%. For `Oc1ccccc1CNc1ccccn1`, the inhibition was inactive: 2.49%. With `Nc1cc(N)c2nonc2c1[N+](=O)[O-]`, the inhibition was inactive: -4.29%.

On to `CC(C)CC(=O)NC(Sc1ccc(Cl)cc1)C(Cl)(Cl)Cl` (stereo not given), for which the inhibition was inactive: 2.23%. Take `CN1CCCC(OC(=O)C(c2ccccc2)c2ccccc2)C1` (stereo not given): the inhibition is inactive: -3.72%. The value for `Clc1ccc(Cl)c(NC2=NCC(CBr)S2)c1` (stereo not given) was inactive: 18.6%. As to `COc1ccccc1OP(=O)(Nc1ccc(C)cn1)Oc1ccccc1OC`, the inhibition was inactive: 9.17%. To `Cc1ccc(N/C(=N/P(=O)(N2CCOCC2)N2CCOCC2)N2CCOCC2)cc1` belongs inactive: -3.73%. The value for `CN(C(=O)Cc1ccc(Cl)c(Cl)c1)[C@H]1CCCC[C@H]1N1CCCC1` was inactive: -5.92%; that for `NC(=O)c1cc([N+](=O)[O-])cc([N+](=O)[O-])c1N` was inactive: -13%. To `CC1CCN(C(=O)Oc2c(Cl)cc(Cl)c3cccnc23)CC1` belongs inactive: -10.4%. Turning to `CN(C)C(=O)OCCc1n(C)cc[n+]1C`, the inhibition was inactive: -4.53%. The value for `CC(C)=N/N=C(\N)N[N+](=O)[O-]` was inactive: -15.3%; that for `CCN(/C(=N/P(=O)(N1CCOCC1)N1CCOCC1)N1CCOCC1)c1ccc(OC)cc1` was inactive: -8.27%; that for `C[N+]1=C2C=CC=CC=C2SC12C([N+](=O)[O-])=CC([N+](=O)[O-])=C[C-]2[N+](=O)[O-]` (stereo not given) was inactive: -1.47%.

Take `Nc1ccc([As](=O)(O)c2ccc(N)cc2)cc1`: the inhibition is inactive: 0.22%.

Regarding `CCc1nc2c(n1)c1c(non1O)c1c2no[n+]1[O-]`, the inhibition was inactive: -2.64%. The value for `O=[N+]([O-])c1cc([N+](=O)[O-])c(CCNc2ccccc2)c([N+](=O)[O-])c1` was inactive: -4.19%; that for `Cc1ccc(NP(=O)(Oc2ccccc2)Oc2ccccc2)nc1` was inactive: -7.96%; that for `O=[N+]([O-])c1cccc2n[nH]nc12` was inactive: -5.12%. To `CC(=O)N1C2C3N(C(C)=O)C1C1N(C(C)=O)C(C(N1C(C)=O)N3C(C)=O)N2C(C)=O` belongs inactive: -16.9%; to `COc1ccc(C2=NCC(CBr)S2)cc1` (stereo not given), inactive: -10%. On to `O=C(O)CNc1ccc([As](=O)(O)O)cc1`, for which the inhibition is inactive: -9.09%. To `COC(=O)C1(C)COP(=O)(Nc2ccccc2)OC1` (stereo not given) belongs inactive: -13.7%; to `O=[N+]([O-])c1ncn(CCn2ncnc2[N+](=O)[O-])n1`, inactive: 7.65%. The value for `CC(C)(C)C(=O)NC(Sc1ccncn1)C(Cl)(Cl)Cl` (stereo not given) was inactive: -7.22%; that for `O=C(Nc1cc([As](=O)(O)O)ccc1O)c1ccccc1` was inactive: -14.1%; that for `O=P1(N(CCCl)CCCl)OCCCS1` (stereo not given) was inactive: -5.83%. `O=P(Nc1ccccn1)(c1cccc2ccccc12)c1cccc2ccccc12`: the inhibition is inactive: -9.99%.

Take `Cc1cc(SC(NC=O)C(Cl)(Cl)Cl)ncn1` (stereo not given): the inhibition is inactive: 2.37%. The value for `O=[N+]([O-])c1ccc(Nc2ccc(Oc3ccc([N+](=O)[O-])cc3[N+](=O)[O-])cc2)c([N+](=O)[O-])c1` was inactive: -16.4%; that for `CCOC(=O)Nc1cccc([As](=O)(O)O)c1` was inactive: 11.3%; that for `Cc1cc(SC(NC(=O)c2ccccc2)C(Cl)(Cl)Cl)nc(C(C)C)n1` (stereo not given) was inactive: 6.14%. Take `CCCCOc1ccc(C(=O)NCC2(N3CCCCC3)CCCCC2)cc1OC`: the inhibition is inactive: -11.1%. To `CCOC(=O)Nc1ccc([As](=O)(O)O)c(O)c1` belongs inactive: -11.9%; to `CC1CCNP(=O)(N(CCCl)CCCl)O1` (stereo not given), inactive: -4.88%. To `CCC(C)N(CC(C)C)C(=S)SC(NC(C)=O)C(Cl)(Cl)Cl` (stereo not given) belongs inactive: -11.2%. `O=C(OC1CN2CCC1CC2)c1cccc([N+](=O)[O-])c1` (stereo not given): the inhibition was inactive: -15.8%.

In the case of `CCOC(=O)c1ccc(NC(=O)C(C)(CCl)SC)cc1` (stereo not given), the inhibition was inactive: -10.3%. On to `O=C(Nc1ccncc1[N+](=O)[O-])c1ccc([N+](=O)[O-])cc1[N+](=O)[O-]`, for which the inhibition is inactive: -5.27%. The value for `O=C(COc1ccccc1)OC1CN2CCC1CC2` (stereo not given) was inactive: -14.3%. To `COP1(=S)c2c(C)nn(CCC#N)c2N=C(c2ccc(F)cc2)N1C` (stereo not given) belongs inactive: -12.9%; to `O=[N+]([O-])c1cc(Oc2ccc([N+](=O)[O-])cc2C(F)(F)F)cc([N+](=O)[O-])c1`, inactive: 21.9%; to `COc1ccc(N/C(=N/P(=O)(N2CCOCC2)N2CCOCC2)N2CCOCC2)cc1`, inactive: -12.7%.

For the compound `O=P1(N(CCCl)CCCl)OCCCN1CCCl` (stereo not given), the inhibition was inactive: -3.8%. To `O=P1(N(CCCl)CCCl)Nc2ccccc2N1` belongs inactive: 4.92%; to `COc1cc(I)ccc1[As](=O)(O)O`, inactive: -9.04%; to `COc1ccc2nc(NP(=O)(c3ccccc3)c3ccccc3)sc2c1`, inactive: -15.1%.

As for `Cc1c2c(nc3ccccc13)SC(C(Cl)Cl)C2` (stereo not given), the inhibition is inactive: -3.98%.
